The record followed here is patent US8901087B2, “Selective glycosidase inhibitors and uses thereof” (priority 2010, dated 2014).

Sequences of proteins named here, by UniProt entry; tags and fusion partners are left off. A change or cut given only in a name is not applied to a line headed by its entry.
UniProt O60502: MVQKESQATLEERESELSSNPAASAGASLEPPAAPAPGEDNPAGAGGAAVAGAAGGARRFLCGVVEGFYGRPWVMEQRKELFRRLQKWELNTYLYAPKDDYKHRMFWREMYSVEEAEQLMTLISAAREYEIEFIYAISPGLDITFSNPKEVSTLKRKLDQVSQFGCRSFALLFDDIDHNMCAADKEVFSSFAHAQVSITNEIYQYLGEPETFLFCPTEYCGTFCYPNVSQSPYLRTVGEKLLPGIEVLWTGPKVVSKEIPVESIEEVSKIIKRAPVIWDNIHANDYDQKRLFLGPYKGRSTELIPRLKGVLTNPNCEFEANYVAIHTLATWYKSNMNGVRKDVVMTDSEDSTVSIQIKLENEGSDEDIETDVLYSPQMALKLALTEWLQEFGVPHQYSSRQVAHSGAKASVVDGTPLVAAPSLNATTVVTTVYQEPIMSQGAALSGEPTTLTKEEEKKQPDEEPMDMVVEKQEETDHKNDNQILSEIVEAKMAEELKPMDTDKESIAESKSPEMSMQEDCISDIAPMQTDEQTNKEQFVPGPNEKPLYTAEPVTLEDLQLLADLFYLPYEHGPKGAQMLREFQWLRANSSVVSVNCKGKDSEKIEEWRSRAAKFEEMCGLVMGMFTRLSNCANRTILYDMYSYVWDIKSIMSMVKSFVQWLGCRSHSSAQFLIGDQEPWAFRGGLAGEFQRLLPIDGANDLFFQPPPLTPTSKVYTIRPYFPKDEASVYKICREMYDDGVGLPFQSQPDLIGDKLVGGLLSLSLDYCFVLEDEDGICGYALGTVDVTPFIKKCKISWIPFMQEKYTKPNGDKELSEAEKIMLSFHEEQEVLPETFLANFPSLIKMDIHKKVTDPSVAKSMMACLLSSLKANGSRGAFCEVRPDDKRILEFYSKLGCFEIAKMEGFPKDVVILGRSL

pKi: −log10 of the molar value.

The test addresses human O-GlcNAcase (Homo sapiens (Human), UniProt O60502). As to the kind of experiment: Fluorescence-based assay for determination of KI values for inhibition of O-GlcNAcase activity. The test is classed as biochemical. Here is the method: Assay for Determination of KI Values for Inhibition of O-GlcNAcase Activity
Experimental Procedure for Kinetic Analyses
Enzymatic reactions are carried out in a reaction containing 50 mM NaH2PO4, 100 mM NaCl and 0.1% BSA (pH 7.0) using 2 mM 4-Methylumbelliferyl N-acetyl-β-D-glucosaminide dihydrate (Sigma M2133) dissolved in ddH2O, as a substrate. The amount of purified human O-GlcNAcase enzyme used in the reaction is 0.7 nM. Test compound of varying concentrations is added to the enzyme prior to initiation of the reaction. The reaction is performed at room temperature in a 96-well plate and is initiated with the addition of substrate. […] The slope of product production is determined for each concentration of compound tested and plotted, using standard curve fitting algorithms for sigmoidal dose response curves. The values for a four parameter logistic curve fit of the data are determined.

`C=CC[C@H](O)[C@H]1O[C@@H]2SC(NCC)=N[C@@H]2[C@@H](O)[C@@H]1O` (single isomer, unassigned) [Example 40]: the pKi (usually the negative decadic logarithm of the Ki, by convention in mol/L) was 8.10.
